Data taken from patent US5530018A, “Meso-azanoradamantanes” (G. D. Searle & Co., priority 1994, dated 1996).

Sequences of proteins named here, by UniProt entry; tags and fusion partners are left off. Residues count along the entry.
UniProt P35563, 24-483: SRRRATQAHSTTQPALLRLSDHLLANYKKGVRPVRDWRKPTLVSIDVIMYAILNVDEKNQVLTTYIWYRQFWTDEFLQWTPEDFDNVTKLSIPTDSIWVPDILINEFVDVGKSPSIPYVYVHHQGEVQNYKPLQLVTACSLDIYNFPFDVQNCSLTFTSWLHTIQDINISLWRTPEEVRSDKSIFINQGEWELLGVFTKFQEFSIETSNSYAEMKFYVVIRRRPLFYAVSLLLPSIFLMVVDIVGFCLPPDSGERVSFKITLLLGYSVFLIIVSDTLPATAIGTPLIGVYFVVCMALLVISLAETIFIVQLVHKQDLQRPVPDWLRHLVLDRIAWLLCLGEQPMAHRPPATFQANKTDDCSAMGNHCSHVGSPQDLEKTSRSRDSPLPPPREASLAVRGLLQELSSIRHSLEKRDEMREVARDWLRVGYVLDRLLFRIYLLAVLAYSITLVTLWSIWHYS

Target: T1, 5-HT3 receptor (Rattus norvegicus, UniProt P35563)
T1 construct: Brain cortices were obtained from male rats and a membrane fraction prepared by standard techniques; from tissue; host or cells: rat brain cortex membranes
Experiment: 5-HT3 radioligand receptor binding, [3H]-GR65630, rat brain cortex membranes
Details: read-out: Effect of Compounds on [H]-GR65630 Bound (0.2 nM): Ki; 0.2 nM [3H]-GR65630, rat brain cortex membranes, 66 minutes at 22° C.
Procedure: 5-HT4 agonist activity was determined in the in vitro rat tunica muscularis mucosae (TMM) assay described herein. (Baxter et al., Naunyn Schmied Arch. Pharmacol, 1991, 343, 439). […] One with skill in the art could determine the activity of the compounds of the present invention using the methodology of these assays, described herein, without undue experimentation.
Procedure: GR65630 binds to the 5-HT3 receptor. Brain cortices were obtained from male rats and a membrane fraction prepared by standard techniques. 0.04 mg of membrane prep was incubated with 0.2 nM [^3 H]-GR65630 for 66 minutes at 22° C. […] Membranes were filtered and washed 3 times and the filters were counted to determine [^3 H]-GR65630 specifically bound. [Kilpatrick GJ, Jones BJ and Tyers MB, Identification and Distribution of 5-HT3 Receptors in Rat Brain Using Radioligand Binding Assay, Nature 330, 746-748 (1987)].

SMILES: COc1cc(N)c(Cl)cc1C(=O)NC1CCN(CCCOc2ccc(F)cc2)CC1OC (stereo not shown) [Cisapride]
- Ki: 1.5 µM
